Experimental data: patent US9725465B2, “Biaryl acetamide compounds and methods of use thereof” (Ambit Biosciences Corporation, priority 2013, dated 2017)

Columns and labels:
[1] = test system: Ba/F3 cells expressing FLT3-ITD-D835V
[2] = test system: Ba/F3 cells expressing FLT3-ITD

Row | Compound | pIC50 [1] | pIC50 [2]
1 | COc1cc2nc(-c3ccc(CC(=O)Nc4cc(C5(C(F)(F)F)CC5)on4)c(F)c3)cnc2cc1OC[C@@H](C)O [Example 208, 2-[2-fluoro-4-[6-[(2R)-2-hydroxypropoxy]-7-methoxy-quinoxalin-2-yl]phenyl]-N-[5-[1-(trifluoro-methyl)cyclopropyl]isoxazol-3-yl]acetamide] | > 8.00 | > 8.00
2 | COc1cc2nc(-c3ccc(CC(=O)Nc4cc(C(C)(C)C(F)(F)F)on4)c(F)c3)cnc2cc1OCCCN1CCOCC1 [Example 209, 2-[2-fluoro-4-[7-methoxy-6-(3-morpholino-propoxy)quinoxalin-2-yl]phenyl]-N-[5-(2,2,2-trifluoro-1,1-dimethyl-ethyl)isoxazol-3-yl]acetamide] | > 8.00 | > 8.00
3 | COc1cc2nc(-c3ccc(CC(=O)Nc4cc(C(C)(C)C(F)(F)F)on4)c(F)c3)cnc2cc1OCCn1cncn1 [Example 210, 2-[2-fluoro-4-[7-methoxy-6-[2-(1,2,4-triazol-1-yl)ethoxy]quinoxalin-2-yl]phenyl]-N-[5-(2,2,2-trifluoro-1,1-dimethyl-ethyl)isoxazol-3-yl]acetamide] | > 8.00 | > 8.00
4 | COc1cc2nc(-c3ccc(CC(=O)Nc4cc(C(C)(C)C(F)(F)F)on4)c(F)c3)cnc2cc1OCCn1cnnc1 [Example 211, 2-[2-fluoro-4-[7-methoxy-6-[2-(1,2,4-triazol-4-yl)ethoxy]quinoxalin-2-yl]phenyl]-N-[5-(2,2,2-trifluoro-1,1-dimethyl-ethyl)isoxazol-3-yl]acetamide] | > 8.00 | > 8.00
5 | COc1cc2nc(-c3ccc(CC(=O)Nc4cc(C5(C(F)(F)F)CC5)on4)c(F)c3)cnc2cc1OCCCN1CCOCC1 [Example 212, 2-[2-fluoro-4-[7-methoxy-6-(3-morpholino-propoxy)quinoxalin-2-yl]phenyl]-N-[5-[1-(trifluoro-methyl)cyclopropyl]isoxazol-3-yl]acetamide] | > 8.00 | > 8.00
6 | COc1cc2ncc(-c3ccc(CC(=O)Nc4cc(C5(C(F)(F)F)CC5)on4)c(F)c3)nc2cc1OCCCN1CCOCC1 [Example 213, 2-[2-fluoro-4-[6-methoxy-7-(3-morpholino-propoxy)quinoxalin-2-yl]phenyl]-N-[5-[1-(trifluoro-methyl)cyclopropyl]isoxazol-3-yl]acetamide] | > 8.00 | > 8.00
7 | COc1cc2nc(-c3ccc(CC(=O)Nc4cc(C(C)(C)C)on4)cc3)cnc2cc1OCCN1CCOCC1 [Example 215, N-(5-tert-butylisoxazol-3-yl)-2-[4-[7-methoxy-6-(2-morpholino-ethoxy)quinoxalin-2-yl]phenyl]acetamide] | > 8.00 | > 8.00
8 | COc1cc2ncc(-c3ccc(CC(=O)Nc4cc(C(C)(C)C(F)(F)F)on4)cc3F)nc2cc1OC [Example 217, 2-[4-(6,7-dimethoxyquinoxalin-2-yl)-3-fluoro-phenyl]-N-[5-(2,2,2-trifluoro-1,1-dimethyl-ethyl)isoxazol-3-yl]acetamide] | > 8.00 | > 8.00
9 | COc1cc2ncc(-c3cc(F)c(CC(=O)Nc4cc(C5(C(F)(F)F)CC5)on4)cc3F)nc2cc1OC [Example 218, 2-[4-(6,7-dimethoxyquinoxalin-2-yl)-2,5-difluoro-phenyl]-N-[5-[1-(trifluoro-methyl)cyclopropyl]isoxazol-3-yl]acetamide] | > 8.00 | > 8.00
10 | COc1cc2ncc(-c3cc(F)c(CC(=O)Nc4cc(C(C)(C)C(F)(F)F)on4)cc3F)nc2cc1OC [Example 219, 2-[4-(6,7-dimethoxyquinoxalin-2-yl)-2,5-difluoro-phenyl]-N-[5-(2,2,2-trifluoro-1,1-dimethyl-ethyl)isoxazol-3-yl]acetamide] | > 8.00 | > 8.00
11 | CC(=O)NCCOc1cc2ncc(-c3ccc(CC(=O)Nc4cc(C(C)(C)C(F)(F)F)on4)c(F)c3)nc2cc1OCCNC(C)=O [Example 220, 2-[4-[6,7-bis(2-acetamidoethoxy)quinoxalin-2-yl]-2-fluoro-phenyl]-N-[5-(2,2,2-trifluoro-1,1-dimethyl-ethyl)isoxazol-3-yl]acetamide] | > 8.00 | > 8.00
12 | CC(=O)N(C)CCOc1cc2ncc(-c3ccc(CC(=O)Nc4cc(C(C)(C)C(F)(F)F)on4)c(F)c3)nc2cc1OCCN(C)C(C)=O [Example 221, 2-[4-[6,7-bis[2-[acetyl(methyl)amino]ethoxy]quinoxalin-2-yl]-2-fluoro-phenyl]-N-[5-(2,2,2-trifluoro-1,1-dimethyl-ethyl)isoxazol-3-yl]acetamide] | > 8.00 | > 8.00
13 | COc1cc2nc(-c3ccc(CC(=O)Nc4cc(C5(C(F)(F)F)CC5)on4)c(F)c3)cnc2cc1OCCCS(C)(=O)=O [Example 222, 2-[2-fluoro-4-[7-methoxy-6-(3-methylsulfonyl-propoxy)quinoxalin-2-yl]phenyl]-N-[5-[1-(trifluoromethyl)cyclo-propyl]isoxazol-3-yl]acetamide] | > 8.00 | > 8.00
14 | COc1cc2nc(-c3ccc(CC(=O)Nc4cc(C5(C(F)(F)F)CC5)on4)c(F)c3)cnc2cc1OCCN1CC2CC(C1)O2 [Example 223, 2-[2-fluoro-4-[7-methoxy-6-[2-(6-oxa-3-azabicyclo[3.1.1]heptan-3-yl)ethoxy]quinoxalin-2-yl]phenyl]-N-[5-[1-(trifluoromethyl)cyclo-propyl]isoxazol-3-yl]acetamide] | > 8.00 | > 8.00
15 | COc1cc2nc(-c3ccc(CC(=O)Nc4cc(C5(C(F)(F)F)CC5)on4)c(F)c3)cnc2cc1OCCN1CC2CC1CO2 (stereo not shown) [Example 224, 2-[2-fluoro-4-[7-methoxy-6-[2-(2-oxa-5-azabicyclo[2.2.1]heptan-5-yl)ethoxy]quinoxalin-2-yl]phenyl]-N-[5-[1-(trifluoromethyl)cyclo-propyl]isoxazol-3-yl]acetamide] | > 8.00 | > 8.00
16 | COc1cc2ncc(-c3cc(F)c(CC(=O)Nc4cc(C(C)(C)C(F)(F)F)on4)c(F)c3)nc2cc1OC [Example 225, 2-[4-(6,7-dimethoxyquinoxalin-2-yl)-2,6-difluoro-phenyl]-N-[5-(2,2,2-trifluoro-1,1-dimethyl-ethyl)isoxazol-3-yl]acetamide] | 7.70 to 8.00 | > 8.00
17 | COc1cc2ncc(-c3cc(F)c(CC(=O)Nc4cc(C5(C(F)(F)F)CC5)on4)c(F)c3)nc2cc1OC [Example 226, 2-[4-(6,7-dimethoxyquinoxalin-2-yl)-2,6-difluoro-phenyl]-N-[5-[1-(trifluoromethyl)cyclo-propyl]isoxazol-3-yl]acetamide] | 7.30 to 7.70 | > 8.00
18 | COc1cc2ncc(-c3ccc(CC(=O)Nc4cc(C5(C(F)(F)F)CC5)on4)c(F)c3)nc2cc1OCCCN [Example 227, 2-[4-[7-(3-aminopropoxy)-6-methoxy-quinoxalin-2-yl]-2-fluoro-phenyl]-N-[5-[1-(trifluoromethyl)cyclo-propyl]isoxazol-3-yl]acetamide] | 7.70 to 8.00 | > 8.00
19 | COc1cc2nc(-c3ccc(CC(=O)Nc4cc(C5(C(F)(F)F)CC5)nn4C)c(F)c3)cnc2cc1OCCN1CCOCC1 [Example 228, 2-[2-fluoro-4-[7-methoxy-6-(2-morpholino-ethoxy)quinoxalin-2-yl]phenyl]-N-[2-methyl-5-[1-(trifluoromethyl)cyclo-propyl]pyrazol-3-yl]acetamide] | > 8.00 | > 8.00
20 | COc1cc2ncc(-c3cnc(CC(=O)Nc4cc(C(C)(C)C(F)(F)F)on4)c(F)c3)nc2cc1OC [Example 229, 2-[5-(6,7-dimethoxyquinoxalin-2-yl)-3-fluoro-2-pyridyl]-N-[5-(2,2,2-trifluoro-1,1-dimethyl-ethyl)isoxazol-3-yl]acetamide] | > 8.00 | > 8.00
21 | COc1cc2nc(-c3ccc(CC(=O)Nc4cc(C5(C(F)(F)F)CC5)n[nH]4)c(F)c3)cnc2cc1OCCN1CCOCC1 [Example 230, 2-[2-fluoro-4-[7-methoxy-6-(2-morpholino-ethoxy)quinoxalin-2-yl]phenyl]-N-[3-[1-(trifluoro-methyl)cyclopropyl]-1H-pyrazol-5-yl]acetamide] | > 8.00 | > 8.00
22 | COc1cc2nc(-c3ccc(CC(=O)Nc4cc(C5(C(F)(F)F)CC5)on4)cc3)cnc2cc1OCCN1CCOCC1 [Example 231, 2-[4-[7-methoxy-6-(2-morpholinoethoxy)quinoxalin-2-yl]phenyl]-N-[5-[1-(trifluoromethyl)cyclo-propyl]isoxazol-3-yl]acetamide] | > 8.00 | > 8.00
23 | COc1cc2cc(-c3ccc(CC(=O)Nc4cc(C5(C(F)(F)F)CC5)on4)c(F)c3)cnc2cc1OCCN1CCOCC1 [Example 232, 2-[2-fluoro-4-[6-methoxy-7-(2-morpholinoethoxy)-3-quinolyl]phenyl]-N-[5-[1-(trifluoromethyl)cyclo-propyl]isoxazol-3-yl]acetamide] | > 8.00 | > 8.00
24 | COc1cc2nc(-c3ccc(CC(=O)Nc4cc(C5(C(F)(F)F)CC5)on4)c(F)c3)cnc2cc1C(C)(O)CO (stereo not shown) [Example 233, 2-[4-[6-(1,2-dihydroxy-1-methyl-ethyl)-7-methoxy-quinoxalin-2-yl]-2-fluoro-phenyl]-N-[5-[1-(trifluoro-methyl)cyclopropyl]isoxazol-3-yl]acetamide] | < 7.30 | > 8.00
25 | COc1cc2ncc(-c3ccc(CC(=O)Nc4cc(C5(C(F)(F)F)CC5)on4)c(F)c3)nc2cc1OCCN1CCOCC1 [Example 234, 2-[2-fluoro-4-[6-methoxy-7-(2-morpholino-ethoxy)quinoxalin-2-yl]phenyl]-N-[5-[1-(trifluoro-methyl)cyclopropyl]isoxazol-3-yl]acetamide] | > 8.00 | > 8.00
26 | COc1cc2nc(-c3ccc(CC(=O)Nc4cc(C(C)(C)C(F)(F)F)n[nH]4)c(F)c3)cnc2cc1OCCN1CCOCC1 [Example 235, 2-[2-fluoro-4-[7-methoxy-6-(2-morpholino-ethoxy)quinoxalin-2-yl]phenyl]-N-[3-(2,2,2-trifluoro-1,1-dimethyl-ethyl)-1H-pyrazol-5-yl]acetamide] | > 8.00 | > 8.00

pIC50: −log10 of the molar value.
